# Yeast mating assay 1: variants of the scFv Ab-14

Reference: Engelhart et al. 2022, doi:10.1038/s41597-022-01779-4. File: FLAb, binding data.

Target: peptide PDVDLGDISGINAS, taken from heptad repeat 2 (HR2) of SARS-CoV-2 spike.

Parent scFv Ab-14: VH joined to VL by a 15-residue (Gly4Ser)3 linker. Changes lie in the heavy chain CDRs alone.
VH: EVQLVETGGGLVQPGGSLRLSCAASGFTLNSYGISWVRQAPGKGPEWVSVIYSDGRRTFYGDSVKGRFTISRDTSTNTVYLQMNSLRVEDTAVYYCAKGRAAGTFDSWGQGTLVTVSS
VL: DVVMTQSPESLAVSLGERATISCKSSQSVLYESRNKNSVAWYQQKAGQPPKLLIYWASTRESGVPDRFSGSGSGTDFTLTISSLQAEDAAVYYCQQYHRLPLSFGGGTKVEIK

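Library AAYL49 holds single substitutions and randomly drawn double and triple substitutions in the CDRs. Affinity was read by AlphaSeq, a pooled yeast mating assay with surface-displayed partners. Pairs that bind mate more often; barcode pairs of the diploids are counted by sequencing. Each replicate has its own calibration line, from reference interactions of the BCL2 family. The assay was run in three technical replicates.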

Variants are written as CDR1, CDR2 and CDR3 of the heavy chain (limits as in the source). Parent: GFTLNSYGIS, VIYSDGRRTFYGDSVK, GRAAGTFDS. Every variant below is changed at D62 of the VH (sequential numbering). Kd is apparent (estimated from mating counts) and averaged on the log scale over replicates with a signal. Smaller is tighter. A pair that was not seen in any replicate is written "nd"; this usually means weak binding, but a binder can also be missed. In this assay the parent's reference entry averaged 4.4 nM; its copy inside this library read 13 µM (one replicate of three). Three control strains display no target. For library AAYL49, 15% of the pairings with them gave a signal, with a median of 11 µM and one signal in twenty below 680 nM, so weak values seen in few replicates may be background. For each scFv, signals with the empty controls are counted beside the result.

* GFTAQSYGIS | VIYSDGRRTFYGVSVK | GRAAGTFDS: nd (0 of 3 replicates; controls 0 of 9)
* GFTLNSYGIS | YIYSDGCRTFYGHSVK | GRAAGTFDS: nd (0 of 3 replicates; controls 0 of 9)
* GFTLNSYGIS | VIYSDGRRTFYGSSVG | FRAAGTFDS: nd (0 of 3 replicates; controls 0 of 9)
* GFTLNSYGIS | VIYSDGRRTFYGCSVK | GRAAGTFDS: 1.1 µM (2 of 3 replicates; controls 2 of 9)
* GFHLLSYGIS | VIYSDGRRTFYGTSVK | GRAAGTFDS: 5.6 µM (3 of 3 replicates; controls 1 of 9)
* GFTLNSYGIS | VIYSDWRRTFYGFSVK | GDAAGTFDS: 2.4 µM (1 of 3 replicates; controls 0 of 9)
* GFTLNSYGIS | VIYSDGRRTFYGASVK | GVAAGTFDS: 20 nM (3 of 3 replicates; controls 0 of 9)
* GFTLNAYGID | VIYSDGRRTFYGPSVK | GRAAGTFDS: 46 nM (3 of 3 replicates; controls 3 of 9)
* GFTLNSYGIS | VIYSDGRRTFYGYSVK | GRASGAFDS: 11 µM (2 of 3 replicates; controls 2 of 9)
* GFTLNSYGIS | VIYSDGRRTFNGMSRK | GRAAGTFDS: 19 µM (2 of 3 replicates; controls 3 of 9)
* GFTLNSYGIS | VIYSDGRRTFYGSSVK | GRFAGTFDS: 6.4 µM (3 of 3 replicates; controls 6 of 9)
* GFTLNSYGIS | VIYSDGRDTFYGCSVK | GRAAGTLDS: 2.3 µM (1 of 3 replicates; controls 0 of 9)
* GFTLNSYGIM | NIYSDGRRTFYGMSVK | GRAAGTFDS: 6.0 µM (1 of 3 replicates; controls 4 of 9)
* GFTLNSYGIS | VIYSDGRETPYGNSVK | GRAAGTFDS: nd (0 of 3 replicates; controls 1 of 9)
* GFTLNSYGIA | VIYSDGRRTFYGPSVK | GRAAGTFES: nd (0 of 3 replicates; controls 0 of 9)
* GFTLNSYGIS | VIYSDGRRTFYGSDVK | GRASGTFDS: 5.1 µM (1 of 3 replicates; controls 0 of 9)
* GETLNSYGIP | VIYSDGRRTFYGQSVK | GRAAGTFDS: nd (0 of 3 replicates; controls 0 of 9)
* GFTLNSYGIS | VIYSDGRRTFYGCSVK | GRAAGTFNS: 7.0 µM (3 of 3 replicates; controls 3 of 9)
* GFTLNSYGIS | VIYSDGKRTCYGISVK | GRAAGTFDS: nd (0 of 3 replicates; controls 2 of 9)
* GFTLNSYGIS | RIYSDGRRTFYGESVK | GDAAGTFDS: nd (0 of 3 replicates; controls 0 of 9)
* GFTLNSYGIS | VIYSDGRRYFYGSTVK | GRAAGTFDS: nd (0 of 3 replicates; controls 0 of 9)
* GFTLHSYGIS | VIYSDGRRTQYGSSVK | GRAAGTFDS: nd (0 of 3 replicates; controls 1 of 9)
* GFTLNSMGIS | VIYSDGRRTFYGCSVK | GRAAGTFGS: 6.9 µM (1 of 3 replicates; controls 4 of 9)
* GFTLNSYGIS | VIYSLGRPTFYGQSVK | GRAAGTFDS: 7.0 µM (1 of 3 replicates; controls 2 of 9)
* GFTLNSYGDS | VIFSDGRRTFYGWSVK | GRAAGTFDS: nd (0 of 3 replicates; controls 0 of 9)
* GYTLNSYNIS | VIYSDGRRTFYGSSVK | GRAAGTFDS: nd (0 of 3 replicates; controls 0 of 9)
* GFTLNKYGIS | VIYSDGRRIFYGQSVK | GRAAGTFDS: nd (0 of 3 replicates; controls 0 of 9)
* GFTLNSYGIS | VIYSDGRRTFYGVSVK | GRAYGTRDS: 100 µM (1 of 3 replicates; controls 1 of 9)
* GFTLNSYGIS | VIYSDGRRTFYGPSVK | GRAVGTFDS: 8.5 µM (1 of 3 replicates; controls 4 of 9)
* GFTLNSYGIS | VIYSDGRRTFYGMHVK | GSAAGTFDS: 200 nM (2 of 3 replicates; controls 0 of 9)
* GFTLNSYGIS | VIYSDGRRTFYGESVK | FRAAGTFDS: 33 µM (3 of 3 replicates; controls 5 of 9)
* GFWLNSYGIS | IIYSDGRRTFYGWSVK | GRAAGTFDS: 85 µM (1 of 3 replicates; controls 2 of 9)
* GETLNSCGIS | VIYSDGRRTFYGTSVK | GRAAGTFDS: 8.0 µM (2 of 3 replicates; controls 1 of 9)
* GFTLLSYGIS | VIYSDGRRTFYGGSVK | GRASGTFDS: 3.3 µM (3 of 3 replicates; controls 1 of 9)
* GFTLNSYGIS | VIYSDGRRLFYGNSVK | GRACGTFDS: nd (0 of 3 replicates; controls 1 of 9)
* GFTLNSYGIS | VIYSKGRRTFYGTSVK | GRAKGTFDS: nd (0 of 3 replicates; controls 1 of 9)
* GFTLNSYGIS | MIYSDGRRTFYGLSVK | GRAAGTFPS: 1.4 µM (1 of 3 replicates; controls 5 of 9)
* GFTLNSYGIS | VIYSDGRRMFYGCNVK | GRAAGTFDS: 5.4 µM (1 of 3 replicates; controls 0 of 9)
* GFTLHSQGIS | VIYSDGRRTFYGMSVK | GRAAGTFDS: 12 µM (3 of 3 replicates; controls 3 of 9)
* GFTLNSYGIS | VIYSDGRRNFYGASVK | GRAAYTFDS: nd (0 of 3 replicates; controls 3 of 9)
* GFTLNSYGIS | VIYSDTVRTFYGWSVK | GRAAGTFDS: nd (0 of 3 replicates; controls 0 of 9)
* GFCLNSYGIL | VIYSDGRRTFYGQSVK | GRAAGTFDS: nd (0 of 3 replicates; controls 0 of 9)
* GFTLNSYGIS | VIYSDGRRTFYIYSVK | GRAAGTFVS: nd (0 of 3 replicates; controls 2 of 9)
* RFTLNSYGIS | VIYSDGRRTFYGISDK | GRAAGTFDS: 27 µM (2 of 3 replicates; controls 2 of 9)
* GFTLESYGIS | KIYSDGRRTFYGISVK | GRAAGTFDS: nd (0 of 3 replicates; controls 4 of 9)

7 of these entries, quoted again:

{"CDR-H1": "GFTLNSYGIA", "CDR-H2": "VIYSDGRRTFYGPSVK", "CDR-H3": "GRAAGTFES", "Kd": "nd", "detected": "0 of 3", "empty controls": "0 of 9"}
{"CDR-H1": "GFTLNSYGIS", "CDR-H2": "VIYSDGRDTFYGCSVK", "CDR-H3": "GRAAGTLDS", "Kd": "2.3 µM", "detected": "1 of 3", "empty controls": "0 of 9"}
{"CDR-H1": "GFTLHSYGIS", "CDR-H2": "VIYSDGRRTQYGSSVK", "CDR-H3": "GRAAGTFDS", "Kd": "nd", "detected": "0 of 3", "empty controls": "1 of 9"}
{"CDR-H1": "GFHLLSYGIS", "CDR-H2": "VIYSDGRRTFYGTSVK", "CDR-H3": "GRAAGTFDS", "Kd": "5.6 µM", "detected": "3 of 3", "empty controls": "1 of 9"}
{"CDR-H1": "GFCLNSYGIL", "CDR-H2": "VIYSDGRRTFYGQSVK", "CDR-H3": "GRAAGTFDS", "Kd": "nd", "detected": "0 of 3", "empty controls": "0 of 9"}
{"CDR-H1": "GFTLNSYGIS", "CDR-H2": "VIYSDGRRTFYIYSVK", "CDR-H3": "GRAAGTFVS", "Kd": "nd", "detected": "0 of 3", "empty controls": "2 of 9"}
{"CDR-H1": "GFTLNSYGIS", "CDR-H2": "VIYSDGRRNFYGASVK", "CDR-H3": "GRAAYTFDS", "Kd": "nd", "detected": "0 of 3", "empty controls": "3 of 9"}